Results: patent publication US20170349533A1, “STABLE SOLID FORMS OF ENCLOMIPHENE AND ENCLOMIPHENE CITRATE” (F.I.S.- FABBRICA ITALIANA SINTETICI S.P.A, priority 2014, published 2017)
Like-named read-outs stand apart in the source and are kept apart here.

Conditions: room temperature, 95% RH

Row | Structure (SMILES) | outcome of comparative stability studies (listed as Enclomiphene having non-needle crystals) | outcome of comparative stability studies
1 | CCN(CC)CCOc1ccc(/C(=C(/Cl)c2ccccc2)c2ccccc2)cc1.O=C(O)CC(O)(CC(=O)O)C(=O)O [Enclomiphene citrate having non-needle crystals] [trans-Clomiphene monocitrate] | fails the stability studies | –
2 | CCN(CC)CCOc1ccc(/C(=C(/Cl)c2ccccc2)c2ccccc2)cc1.O=C(O)CC(O)(CC(=O)O)C(=O)O [Enclomiphene citrate] | – | remains thermodynamically stabile
